According to ChEMBL document CHEMBL1147770, “Design, synthesis and structure-activity relationships of new phosphinate inhibitors of MurD” (Bioorg Med Chem Lett, 2006):

Biological target: T1, UDP-N-acetylmuramoylalanine--D-glutamate ligase (Escherichia coli K-12) (UniProt P14900)
T1 sequence (whole entry): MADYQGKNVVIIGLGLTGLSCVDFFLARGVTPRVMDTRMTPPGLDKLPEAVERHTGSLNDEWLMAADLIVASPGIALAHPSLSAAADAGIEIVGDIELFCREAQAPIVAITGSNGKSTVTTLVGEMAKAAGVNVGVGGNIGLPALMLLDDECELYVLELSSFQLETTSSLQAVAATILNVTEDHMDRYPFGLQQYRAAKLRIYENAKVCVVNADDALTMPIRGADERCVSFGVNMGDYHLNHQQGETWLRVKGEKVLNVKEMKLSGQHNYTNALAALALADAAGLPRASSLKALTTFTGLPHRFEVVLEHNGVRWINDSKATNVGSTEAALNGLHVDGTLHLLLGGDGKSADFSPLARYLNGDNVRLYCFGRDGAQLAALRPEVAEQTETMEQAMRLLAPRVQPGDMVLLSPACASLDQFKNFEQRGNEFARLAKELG
Test: Residual activity of MurD from Escherichia coli at 1 mM

Activity: 17%
Structure (SMILES): CC(NC(=O)/C=C/c1ccc2c(c1)OCO2)P(=O)(O)CC(CCC(=O)O)C(=O)O (stereo unspecified)
